Reference: article PMC5577515, “Peptide‐Directed Binding for the Discovery of Modulators of α‐Helix‐Mediated Protein–Protein Interactions: Proof‐of‐Concept Studies with the Apoptosis Regulator Mcl‐1” (Angewandte Chemie (International Ed. in English), 2017)

Amino acid sequences for entries named in this document (tags omitted). Residues count along the entry.
UniProt P97287, 152-189 limits assumed: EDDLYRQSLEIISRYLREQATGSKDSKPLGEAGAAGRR
UniProt Q07820, 209-327 limits assumed: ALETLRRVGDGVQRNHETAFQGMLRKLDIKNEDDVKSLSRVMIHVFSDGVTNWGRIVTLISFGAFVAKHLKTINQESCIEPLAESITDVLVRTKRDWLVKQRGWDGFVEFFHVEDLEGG

Assays:
Mcl-1 = Mcl-1 (UniProt P97287+Q07820); assay: Competitive fluorescence anisotropy (FA) assay, FITC-NoxaB displacement from Mcl-1; details: read-out: FA IC50; Table 2; inhibition of binding of 5 nM FITC-NoxaB to 10 nM Mcl-1; PBS, 0.05% Tween-20, pH 7.4; non-linear regression of at least three experiments; errors = transformed greater extreme of standard error
AsPC-1 cells = assay: MTS cytotoxicity assay, AsPC-1; details: read-out: AsPC-1 cell growth inhibition IC50, 72 h, 37 °C, triplicate, at least three experiments, errors = transformed greater extreme of standard error
BxPC-3 cells = assay: MTS cytotoxicity assay, BxPC-3; details: read-out: BxPC-3 cell growth inhibition IC50, 72 h, 37 °C, triplicate, at least three experiments, errors = transformed greater extreme of standard error
MiaPaCa-2 cells = assay: MTS cytotoxicity assay, MiaPaCa-2; details: read-out: MiaPaCa-2 cell growth inhibition IC50, 72 h, 37 °C, triplicate, at least three experiments, errors = transformed greater extreme of standard error

Row | IC50 (Mcl-1) [µM] | SMILES | IC50 (AsPC-1 cells) [µM] | IC50 (BxPC-3 cells) [µM] | IC50 (MiaPaCa-2 cells) [µM]
1 | 0.102 | CCCCCCCc1cn(CC(=O)O)nn1 | > 100 | > 100 | > 100
2 | 0.033 | CCCCCCCc1cn(Cc2ccccc2)nn1 | > 100 | > 100 | > 100
